SMILES: Cc1ccc(C(=O)c2ccc(CC(=O)NCCn3cnc4c3c(=O)n(C)c(=O)n4C)n2C)cc1 [compound (1), 7-(1-methyl-5-p-methylbenzoylpyrrole-2-acetamidoethyl)theophylline]
- mortality over the long or short term (doses and routes used in the experiments described): no mortality
- apparent signs of toxic effects (in vivo): no apparent signs of toxic effects
- toxic effects (in vivo): no significant toxic effects
